# Test system: RBL-2H3 cells
# Assay: Antigen (DNP-BSA)-induced β-hexosaminidase release (degranulation) in IgE-sensitized RBL-2H3 cells
# Assay type: cell-based, rat
# From the text: The rat basophilic cell line RBL-2H3 is an art recognized model for studying the activation of metachromatic cells through FcεRI (Oliver et al., “Signal transduction and cellular response in RBL-2H3 mast cells,” Prog. Allergy 42:185-245, 1988).
# The below experiments used the rat basophilic cells RBL-2H3 commercially available from the American Type Culture Collection (ATCC; Manassas, Va.) under accession number CRL-2256. RBL-2H3 cells were passively sensitized with mouse IgE anti-dinitrophenyl conjugated to bovine serum albumin (DNP-BSA) monoclonal antibody for 22 hours, and then stimulated with DNP-BSA (antigen) to induce cell degranulation (FIG. 1).
smiles,measurement,value
Cc1ccc(-c2nn(C(C)(C)C)c3ncnc(N)c23)cc1 [PP1],"blockade of IgE-dependent activation and degranulation of metachromatic cells, agent alone",potent blocker
